Measured values taken from PubChem BioAssay AID2451 (National Center for Advancing Translational Sciences (NCATS), 2010).
Only a part is listed here, and it is no random draw. Results filed as inconclusive are left out. Calls of active or inactive are those of the source. Calls come from the whole dose curve; as a rule, active = well fitted inhibition curve with a large enough effect; inconclusive = small, poorly fitted or top-dose-only effect, or effect the other way; inactive = flat fitted curve, though single readings scatter.

By UniProt entry, the sequences of proteins in these tests, tags left out. Where a name states a change or a piece, a line headed by the entry shows the natural chain unless it says otherwise.
UniProt A8B2U2: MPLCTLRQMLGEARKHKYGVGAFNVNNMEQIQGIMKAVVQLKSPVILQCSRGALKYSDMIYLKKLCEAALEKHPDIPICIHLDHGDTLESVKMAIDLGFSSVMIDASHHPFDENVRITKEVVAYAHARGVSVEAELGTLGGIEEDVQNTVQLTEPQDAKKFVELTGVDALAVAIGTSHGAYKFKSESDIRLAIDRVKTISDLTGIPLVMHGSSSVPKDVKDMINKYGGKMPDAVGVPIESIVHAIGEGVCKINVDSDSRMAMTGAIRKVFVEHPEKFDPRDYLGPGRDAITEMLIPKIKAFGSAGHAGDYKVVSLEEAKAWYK

Target: Fructose-bisphosphate aldolase (Giardia intestinalis (strain ATCC 50803 / WB clone C6)) (UniProt A8B2U2)
Experiment: qHTS Assay for Inhibitors of Fructose-1,6-bisphosphate Aldolase from Giardia Lamblia; note: nearly all actives have a fitted effect of over 55% in size
Settings: purified Giardia FBPA
Source text: Assay Provider: Osnat Herzberg, University of Maryland
The objective of this project is to obtain compounds that inhibit Giardia lamblia growth. G. lamblia is a human pathogen which afflicts impoverished nations; it is the most common cause of outbreaks of diarrhea in the United States. During the course of our study of potential drug targets in Giardia, we have identified the Class II (Zn2+ functions in electrophilic catalysis) fructose-1,6-bisphosphate aldolase (FBPA) as an excellent candidate for drug targeting. FBPA is a key glycolytic pathway enzyme, essential for G. lamblia survival. The human FBPA belongs to the Class I aldolases, which have a different substrate binding site structure and a radically different catalytic mechanism (employing a lysine-Schiff base intermediate). […]
A glyceraldehyde-3-phosphate dehydrogenase/triose phosphate isomerase/NAD/arsenate coupled assay was adapted to the 1536-well HTP format for use in the primary screen. This was done by coupling it to a diaphorase/resazurin/resorufin reaction that can be monitored by fluorescence (excitation, 544 nm; emission, 590 nm). Compounds identified in this screen will be further evaluated by coupling the glycerol-3-phosphate/triose phosphate isomerase/NADH assay to a phenazine methosulfate/tetranitroblue tetrazolium color reaction. […]
6,Detector,525 nm/598 nm (Fluorescence),ViewLux Fluorescence Read (Read 1) […]
Potency is the fitted concentration of half-maximal effect.

| Structure (SMILES) | Potency |
| --- | --- |
| CC1(C)N([O-])c2cc([N+](=O)[O-])ccc2[N+]1=O | active: 14.1 µM |
